According to patent US6054435A, “6-O-substituted macrolides having antibacterial activity” (priority 1999, dated 2000):

System: Streptococcus Pneumonia 5979
Experiment: in vitro antibacterial activity (MIC), agar dilution
Format: cell-based
Conditions: organism code ZZ; BHI agar, 35-37° C., 20 to 24 hours; unit assumed
Method: Representative compounds of the present invention were assayed in vitro for antibacterial activity as follows: Twelve petri dishes containing successive aqueous dilutions of the test compound mixed with 10 mL of sterilized Brain Heart Infusion (BHI) agar (Difco 0418-01-5) were prepared. Each plate was inoculated with 1:100 (or 1:10 for slow-growing strains, such as Micrococcus and Streptococcus) dilutions of up to 32 different microorganisms, using a Steers replicator block. The inoculated plates were incubated at 35-37° C. for 20 to 24 hours. In addition, a control plate, using BHI agar containing no test compound, was prepared and incubated at the beginning and end of each test.
An additional plate containing a compound having known susceptibility patterns for the organisms being tested and belonging to the same antibiotic class as the test compound was also prepared and incubated as a further control, as well as to provide test-to-test comparability. Erythromycin A was used for this purpose.
After incubation, each plate was visually inspected. The minimum inhibitory concentration (MIC) was defined as the lowest concentration of drug yielding no growth, a slight haze, or sparsely isolated colonies on the inoculum spot as compared to the growth control.

## CC[C@H]1OC(=O)[C@H](C)[C@@H](O[C@H]2C[C@@](C)(OC)[C@@H](O)[C@H](C)O2)[C@H](C)[C@@H](O[C@@H]2O[C@H](C)C[C@H](N(C)C)[C@H]2O)[C@](C)(O)C[C@@H](C)C(=O)[C@H](C)[C@@H](O)[C@]1(C)O [Ery. A, Erythromycin A, reference compound]
  MIC: > 128 µg/mL
